{"source": "paper PMC9503518", "about": "“Antibacterial and Antifungal Properties of a Novel Antimicrobial Peptide GK-19 and Its Application in Skin and Soft Tissue Infections Induced by MRSA or Candida albicans” (Pharmaceutics, 2022)", "test_system": "MRSA", "conditions": "mouse, in vivo", "protocol": "The scalded mice models combined with SSTIs by MRSA or C. albicans were constructed. Fifty normal male Kunming mice (5–6 weeks old) weighing ~25 g were anesthetized by isoflurane using a small animal anesthesia machine (R640, RWD Life Science, China). After skin preparation and disinfection, a custom-made circular iron (diameter: 8 mm) (shown in Figure S4) was applied to both sides of the spine of the mice for 10 s at 300 °C, resulting in four scalded wounds. Mice were injected subcutaneously with 5 mg/kg meloxicam (Aladdin, Shanghai, China) for four days (once per day) after scalding for pain relief. Two days after scalding, the skin tissues of the scalded areas were removed carefully, and about 30 μL of 1 × 10^7 CFU/mL of MRSA or C. albicans was applied evenly onto the surfaces of the wounds. The mice were returned to the original feeding environment after the microbial fluid was completely absorbed (1.5–2 h), with two mice per cage. Corncob granules with SPF level were used as padding.\nTwo days after microbe inoculating, the scalded wounds of each mouse were divided into four groups randomly. […] Photographs of the wound areas were taken every two days using an iPhone 11 and the wound areas were measured every two days using Image J software (152-win-java8, Bethesda, MD, USA). […] After culturing overnight, the colonies were counted using Image J software or human eyes. […]", "note": "Counter-ions that a name gives are not always drawn."}
{"smiles": "CCC[C@@H]1C[C@@H](C(=O)N[C@@H]([C@H]2O[C@H](SC)[C@H](O)[C@@H](O)[C@H]2O)[C@H](C)Cl)N(C)C1", "note": "[CDHC, clindamycin hydrochloride]", "values": [{"measurement": "MRSA suppressed (inhibition rate) at day eight compared with saline solution groups", "result": "~ 95%"}]}
